Patent US6642389B2, “Oxazole derivatives” (Hoffmann-La Roche Inc., priority 2001, dated 2003)

Assays:
[1] = target: T1, PPARα (Homo sapiens, UniProt Q07869); assay: Radioligand binding assay, PPARα receptor binding (GST-PPARα-LBD fusion protein)
T1 sequence (Q07869 167-468 limits assumed): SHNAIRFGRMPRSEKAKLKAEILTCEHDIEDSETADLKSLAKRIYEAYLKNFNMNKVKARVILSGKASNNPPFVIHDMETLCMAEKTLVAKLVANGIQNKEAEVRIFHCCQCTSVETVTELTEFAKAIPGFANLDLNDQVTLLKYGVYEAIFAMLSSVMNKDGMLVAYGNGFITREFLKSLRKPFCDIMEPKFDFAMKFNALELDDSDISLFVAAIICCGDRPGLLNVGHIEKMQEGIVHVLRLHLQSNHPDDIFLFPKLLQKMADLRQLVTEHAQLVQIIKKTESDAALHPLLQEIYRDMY
Excerpt: (§1) Full-length cDNA clones for human PPARα and mouse PPARγ were obtained by RT-PCR from human adipose and mouse liver cRNA, respectively, cloned into plasmid vectors and verified by DNA sequencing. […] To accomplish this, the portions of the cloned sequences encoding the LBDs were amplified from the full-length clones by PCR and then subcloned into the plasmid vectors pGEX4T-2(Pharmacia) and pFA-CMV(Stratagene). Final clones were verified by DNA sequence analysis.
Induction, expression, and purification of GST-LBD fusion proteins were performed in E. coli strain BL21(pLysS) cells by standard methods (Ref: Current Protocols in Molecular Biology, Wiley Press, edited by Ausubel et al.).
PPARα receptor binding was assayed in TKE10 (10 mM Tris-HCl, pH 8, 50 mM KCl, 2 mM EDTA, 0.1 mg/ml fatty acid free BSA and 10 mM DTT). […]
PPARγ receptor binding was assayed in TKE50 (50 mM Tris-HCl, pH 8, 50 mM KCl, 2 mM EDTA, 0.1 mg/ml fatty acid-free BSA and 10 mM DTT). […] All binding assays were performed in 96 well plates and the amount of bound ligand measured on a Packard TopCount using OptiPlates (Packard). Nonspecific binding was determined in the presence of 10^−4 M unlabelled compound. […]

[2] = target: T1, PPARα; assay: Luciferase transcriptional reporter gene assay, pFA-PPARα-LBD in BHK21 cells; type: cell-based; set-up: expressed in transfected cells; host or cells: BHK21 (ATCC CCL10)
Excerpt: as §1
Baby hamster kidney cells (BHK21 ATCC CCL10) were grown in DMEM medium containing 10% FBS at 37° C. in a 95% O2:5% CO2 atmosphere. […] Following incubation of the cells for 24 hours with substances, 50 ul of the supernatant was recovered and analyzed for SEAP activity (Roche Molecular Biochemicals). […] Luminescence for both SEAP and luciferase was measured in a Packard TopCount. Luciferase activity was normalized to the SEAP control and transcriptional activation in the presence of a test substance was expressed as fold-activation over cells incubated in the absence of the substance. EC50 values were calculated using the XLfit program (ID Business Solutions Ltd. UK).

- PPARα IC50 [1]: inactive
- PPARα EC50 [2]: inactive
SMILES: CN(CCOc1ccc(CC2SC(=O)NC2=O)cc1)c1ccccn1 (centres unmarked) [Rosiglitazone, reference compound]
